Among the data in PubChem BioAssay AID738 (SRMLSC, 2007) are inhibition values, retold here.

This is a selection; strong and weak results do not stand in their true shares. The source made the active and inactive calls. No stated cut-off is given here; in the data, active means inhibition above about 30%; inactive means the rest.

This assay can be described thus: yeast control strain growth suppression – counter-screen for post-Golgi transport modulator project, primary screen (AID 738). Particulars: efflux-deficient yeast background strain, growth absorbance A615, 16 h; at 10 µM; stronger effect = higher value.
Consider `COc1ccc(NC2CCN(CCc3ccccc3)CC2)c(OC)c1`, for which the inhibition was inactive: 1.18%.

Take `O=C(NCC1(N2CCOCC2)CCCCC1)c1cc2ccccc2o1`: the inhibition was inactive: -3.16%.

Regarding `O=C(OC1CN2CCC1CC2)C1c2ccccc2Oc2ccccc21` (centres undefined), the inhibition was inactive: 6.18%.

For `N#CC1(Nc2ccccc2)CCN(CCc2ccccc2)CC1`, the inhibition is inactive: 6.32%.

For the compound `O=C(NCC1(N2CCOCC2)CCCCC1)c1cc(=O)[nH]c2ccccc12`, the inhibition was inactive: 3.46%.

Regarding `c1ccc(CN2CCC(Nc3ccccc3)CC2)cc1`, the inhibition is inactive: 0.44%.

Regarding `N/C(=N\O)c1c(N)no[n+]1[O-]`, the inhibition was inactive: 7.92%.

`CCOc1ncccc1C(=O)NCC1(N2CCOCC2)CCCCC1`: the inhibition is inactive: 5.78%.

As for `CCC(CO)(C(=O)OC1CN2CCC1CC2)c1ccccc1` (centres undefined), the inhibition is inactive: 1.99%.
